Data reported in patent US11331368B2, “Angiotensin receptor agonists and uses thereof” (Monash University, priority 2017, dated 2022).

T1: human Angiotensin II Receptor Type 2 (AT2R) (human, UniProt P50052 1-363)
T1 construct: whole, on cells; also endogenous on human cardiac fibroblasts (functional entries); also called AT2 receptor
T1 sequence (looked up): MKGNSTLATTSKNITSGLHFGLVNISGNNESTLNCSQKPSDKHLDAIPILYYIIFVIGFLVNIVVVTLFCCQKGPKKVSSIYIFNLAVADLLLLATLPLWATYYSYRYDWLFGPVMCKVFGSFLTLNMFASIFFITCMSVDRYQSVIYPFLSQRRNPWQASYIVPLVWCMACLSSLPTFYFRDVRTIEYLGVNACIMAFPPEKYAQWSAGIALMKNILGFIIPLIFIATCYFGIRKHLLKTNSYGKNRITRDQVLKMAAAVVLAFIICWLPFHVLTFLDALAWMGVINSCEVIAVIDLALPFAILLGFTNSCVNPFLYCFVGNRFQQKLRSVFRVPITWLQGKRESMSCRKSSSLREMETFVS

B1: βArg-Trp-8-Ang III (peptide)
peptide: RVYIHPW
modifications: β-Arg at residue 1 of this chain
notes: synthetic peptide; also called β-Arg-Val-Tyr-Ile-His-Pro-Trp
B2: D-Arg β-Pro-Ang III (peptide)
peptide: RVYIHPF
modifications: D-Arg at residue 1 of this chain (printed D-Arg^2); β-Pro at residue 6 (printed β-Pro^7), Ang II numbering
notes: synthetic peptide; also called D-Arg^2-β-Pro^7-Ang III; D-Arg-Val-Tyr-Ile-His-β-Pro-Phe
B3: Tet-βPro-Ang III (peptide)
peptide: RVYIHPF
modifications: N-terminal Tetrazole-CONH cap; β-Pro at residue 6 of this chain
notes: synthetic peptide; also called Tetrazole-CONH-Arg-Val-Tyr-Ile-His-β-Pro-Phe
B4: βPro-Ang III (peptide)
peptide: RVYIHPF
modifications: β-Pro at residue 6 of this chain (printed β-Pro^7, Ang II numbering)
notes: synthetic peptide; also called β-Pro^7-Ang III; Arg-Val-Tyr-Ile-His-β-Pro-Phe
B5: βPro-Ang IV (peptide)
peptide: VYIHPF
modifications: β-Pro at residue 5 of this chain
notes: synthetic peptide; also called Val-Tyr-Ile-His-β-Pro-Phe
B6: βIle-8-Ang II (peptide)
peptide: DRVYIHPI
modifications: β-Ile at position 8
notes: synthetic peptide; also called Asp-Arg-Val-Tyr-Ile-His-Pro-β-Ile
B7: βPro-Ala-8-Ang II (peptide)
peptide: DRVYIHPA
modifications: β-Pro at position 7
notes: synthetic peptide; also called Asp-Arg-Val-Tyr-Ile-His-β-Pro-Ala
B8: βTyr-Ala-8-Ang II (peptide)
peptide: DRVYIHPA
modifications: β-Tyr at position 4
notes: synthetic peptide; also called Asp-Arg-Val-β-Tyr-Ile-His-Pro-Ala
B9: D-Arg-βPro-Trp-8-Ang III (peptide)
peptide: RVYIHPW
modifications: D-Arg at residue 1 of this chain (printed D-Arg^2); β-Pro at residue 6 (printed β-Pro^7), Ang II numbering
notes: synthetic peptide; also called D-Arg^2-β-Pro^7-Trp^8-Ang III; D-Arg-Val-Tyr-Ile-His-β-Pro-Trp
B10: Nic-βPro-Trp-8-Ang III (peptide)
peptide: RVYIHPW
modifications: N-terminal nicotinamido cap; β-Pro at residue 6 of this chain
notes: synthetic peptide; also called Nicotinamido-Arg-Val-Tyr-Ile-His-β-Pro-Trp
B11: Pro-βTrp-8-Ang III (peptide)
peptide: RVYIHPW
modifications: β-Trp at residue 7 of this chain
notes: synthetic peptide; also called Arg-Val-Tyr-Ile-His-Pro-β-Trp
B12: βPro-Ala-8-Ang III (peptide)
peptide: RVYIHPA
modifications: β-Pro at residue 6 of this chain
notes: synthetic peptide; also called Arg-Val-Tyr-Ile-His-β-Pro-Ala
B13: βPro-Trp-8-Ang III (peptide)
peptide: RVYIHPW
modifications: β-Pro at residue 6 of this chain (printed β-Pro^7, Ang II numbering)
notes: synthetic peptide; also called βPro-Trβ-8-Ang III; β-Pro^7-Trp^8-Ang III
B14: βVal-Trp-8-Ang III (peptide)
peptide: RVYIHPW
modifications: β-Val at residue 2 of this chain
notes: synthetic peptide; also called Arg-β-Val-Tyr-Ile-His-Pro-Trp
B15: βILe-Trp-8-Ang III (peptide)
peptide: RVYIHPW
modifications: β-Ile at residue 4 of this chain
notes: synthetic peptide; also called Arg-Val-Tyr-β-Ile-His-Pro-Trp
B16: Tet-βPro-Trp-8-Ang III (peptide)
peptide: RVYIHPW
modifications: N-terminal Tetrazole-CONH cap; β-Pro at residue 6 of this chain
notes: synthetic peptide; also called Tetrazole-CONH-Arg-Val-Tyr-Ile-His-β-Pro-Trp

Tests used:
[1] = target: T2, human Angiotensin II Receptor Type 1 (AT1R) (human, UniProt P30556 1-359); assay: competition radioligand binding on HEK-293 cells with AT1R; competitor [125I]-Sar1Ile8Ang II
T2 construct: whole, on cells; also endogenous on human cardiac fibroblasts (functional entry); also called AT1 receptor

[2] = target: T1, human Angiotensin II Receptor Type 2 …; assay: competition radioligand binding on HEK-293 cells with AT2R; competitor [125I]-Sar1Ile8Ang II

Binder | IC50 [1] | IC50 [2]
B1 | 2500 nM | 1.35 nM
B2 |  | 0.324 nM
B3 |  | 0.78 nM
B4 |  | 0.468 nM
B5 |  | 13.5 nM
B6 |  | 7.7 nM
B7 |  | 23 nM
B8 |  | 30.3 nM
B9 |  | 2.82 nM
B10 | 2940 nM | 0.19 nM
B11 | 1930 nM | 3.14 nM
B12 |  | 49.1 nM
B13 |  | 0.236 nM
B14 |  | 0.236 nM
B15 |  | 39.1 nM
B16 |  | 0.18 nM
